The values below are quoted from earlier work in patent US11896701B2, “Method for dyeing keratin material, comprising the use of an organic C1-C6 alkoxy silane and tannic acid” (Henkel AG & Co. KGaA, priority 2019, dated 2024).

For the data set the following is noted: 25° C.

As for “3,4,5,6-tetrachloro-2-(1,4,5,8-tetrabromo-6-hydroxy-3-oxoxanthen-9-yl)benzoic acid [Acid Red 92]”, the solubility in water result is listed as “greater than 10 g/L”.
